This note sets out measurements from ChEMBL document CHEMBL3526057, “Evaluation of the effects of 20 nonsynonymous single nucleotide polymorphisms of CYP2C19 on S-mephenytoin 4'-hydroxylation and omeprazole 5'-hydroxylation” (Drug Metab Dispos, 2011).

Structures are written as SMILES.

Series [1] has as its target Cytochrome P450 2C19 (Homo sapiens, UniProt P33261, W212C). Kind of series: Activity of human recombinant CYP2C19 W212C mutant expressed in Saccharomyces cerevisiae BJ5457 assessed as omeprazole 5'-hydroxylation per pmol protein at 100 uM after 60 mins. Type of series: ADME. The conditions noted are these: recombinant enzyme, 1 h.
Series [2] addresses Cytochrome P450 2C19 (Homo sapiens, UniProt P33261, E92D). In words: Activity of human recombinant CYP2C19 E92D mutant expressed in Saccharomyces cerevisiae BJ5457 assessed asomeprazole 5'-hydroxylation after 60 mins. The series is classed as ADME. Conditions: recombinant enzyme, 1 h.

The Km is the concentration of substrate that gives half-maximal velocity. Turning to `COc1ccc2[nH]c([S+]([O-])Cc3ncc(C)c(OC)c3C)nc2c1` (configuration not stated) [OMEPRAZOLE], at Cytochrome P450 2C19 [1], the Drug metabolism amounted to 1.78 pmol/min. Also, on Cytochrome P450 2C19 [2], the Km was determined as 8.75 µM.
